Measured values published in ChEMBL document CHEMBL5370584, “Reprogramming Energy Metabolism with Synthesized PDK Inhibitors Based on Dichloroacetate Derivatives and Targeted Delivery Systems for Enhanced Cancer Therapy” (J Med Chem, 2023).

Chains of the proteins cited; added tags and fusions are not shown. Residues count along the entry.
UniProt Q15118, 29-436 limits assumed: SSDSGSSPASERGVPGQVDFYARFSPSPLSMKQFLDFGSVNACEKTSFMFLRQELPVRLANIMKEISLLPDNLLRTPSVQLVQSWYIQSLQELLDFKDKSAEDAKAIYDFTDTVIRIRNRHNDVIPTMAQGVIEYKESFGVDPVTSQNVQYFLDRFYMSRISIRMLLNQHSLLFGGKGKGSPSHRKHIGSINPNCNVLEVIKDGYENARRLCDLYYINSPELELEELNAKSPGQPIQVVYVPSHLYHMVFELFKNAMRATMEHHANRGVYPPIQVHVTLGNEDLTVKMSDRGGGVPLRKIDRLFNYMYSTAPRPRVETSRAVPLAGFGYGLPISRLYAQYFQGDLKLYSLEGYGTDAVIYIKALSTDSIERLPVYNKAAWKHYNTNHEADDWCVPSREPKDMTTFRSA

Legend:
MCF7 = assay: Antiproliferative activity against human MCF7 cells assessed as inhibition of cell growth incubated for 24 hrs by MTT assay
HeLa = assay: Antiproliferative activity against human HeLa cells assessed as inhibition of cell growth incubated for 24 hrs by MTT assay
COS-7 = assay: Antiproliferative activity against African green monkey COS7 cells assessed as inhibition of cell growth incubated for 24 hrs by MTT assay
MOLM-13 = assay: Antiproliferative activity against human MOLM-13 cells assessed as inhibition of cell growth incubated for 24 hrs by MTT assay
[1] = biological target: [Pyruvate dehydrogenase (acetyl-transferring)] kinase isozyme 1, mitochondrial (Homo sapiens, UniProt Q15118)
4T1 = assay: Antiproliferative activity against mouse 4T1 cells assessed as inhibition of cell growth incubated for 24 hrs by MTT assay
NB-4 = assay: Antiproliferative activity against human NB4 cells assessed as inhibition of cell growth incubated for 24 hrs by MTT assay

| Structure (SMILES) | IC50 (MCF7) [nM] | IC50 (HeLa) [nM] | IC50 (COS-7) [nM] | IC50 (MOLM-13) [nM] | EC50 [1] [nM] | IC50 (4T1) [nM] | IC50 (NB-4) [nM] |
| --- | --- | --- | --- | --- | --- | --- | --- |
| Nc1ccc([As]2SCCCS2)cc1 | 1860 | 1100 | 6090 | 580 | 12000 | 1670 | 1390 |
| Nc1ccccc1[As]1SCCCS1 | 1370 | 280 | 1540 | 410 | 17000 | 870 | 390 |
